Assay results from PubChem BioAssay AID463212 (Sanford-Burnham Center for Chemical Genomics, 2010).
The entries are a selection whose mix differs from that of the whole data set. Calls of active or inactive are those of the source.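 How the source made its calls: active means growth inhibition of the mutant yeast at or above 50%; inactive means the rest.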

Assay: growth inhibitors of tim23-1 mutant yeast, primary screen, luminescence, uHTS (AID 463212);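 further: temperature-sensitive mutant grown at 25 °C; plate controls were DMSO-treated mutant yeast for no effect and medium wells lacking yeast for full effect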
Conditions: S. cerevisiae tim23-1 growth, BacTiter-Glo luminescence, 24 h; at 20 µM; stronger effect = higher value

SMILES	inhibition
C(Cc1nn[nH]n1)Cc1nn[nH]n1	inactive: 14.5%
Nc1ccc([As](=O)(O)c2ccc([N+](=O)[O-])cc2)cc1	inactive: -1.01%
O=C(OC1CN2CCC1CC2)c1cccc(Cl)c1 (stereo not given)	inactive: -7.57%
O=[N+]([O-])c1ncn(CCn2cnc([N+](=O)[O-])n2)n1	inactive: 7.87%
O=[As](O)(c1ccccc1)c1ccc(O)cc1	inactive: -4.72%
c1nnnn1CCn1cnnn1	inactive: 8.94%
O=P(Nc1nccs1)(c1ccccc1)c1ccccc1	inactive: 1.49%
CC(C)C(=O)NC(Sc1ccccc1)C(Cl)(Cl)Cl (stereo not given)	inactive: 7.25%
CC(=O)N1C2C3N(C(C)=O)C1C1N(C(C)=O)C(C(N1C(C)=O)N3C(C)=O)N2C(C)=O	inactive: 5.59%
O=[N+]([O-])c1cccc2n[nH]nc12	inactive: 17.4%
Cc1ccc(NP(=O)(Oc2ccccc2)Oc2ccccc2)nc1	inactive: 21.3%
O=[N+]([O-])c1cc([N+](=O)[O-])c(CCNc2ccccc2)c([N+](=O)[O-])c1	active: 74.5%
CCc1nc2c(n1)c1c(non1O)c1c2no[n+]1[O-]	inactive: 1.33%
COc1ccc(C2=NCC(CBr)S2)cc1 (stereo not given)	inactive: 22.7%
CC(C)=N/N=C(\N)N[N+](=O)[O-]	inactive: 2.2%
CN(C)C(=O)OCCc1n(C)cc[n+]1C	inactive: -4.83%
CC1CCN(C(=O)Oc2c(Cl)cc(Cl)c3cccnc23)CC1	inactive: 32.6%
Nc1ccc([As](=O)(O)c2ccc(N)cc2)cc1	inactive: 2.09%
C[N+]1=C2C=CC=CC=C2SC12C([N+](=O)[O-])=CC([N+](=O)[O-])=C[C-]2[N+](=O)[O-] (stereo not given)	active: 88.6%
CCN(/C(=N/P(=O)(N1CCOCC1)N1CCOCC1)N1CCOCC1)c1ccc(OC)cc1	inactive: -3.27%
O=C(Nc1cc([As](=O)(O)O)ccc1O)c1ccccc1	inactive: 19.9%
O=[N+]([O-])c1cccc(NC2=NCC(CBr)S2)c1 (stereo not given)	inactive: 8.8%
CC(C)(C)C(=O)NC(Sc1ccncn1)C(Cl)(Cl)Cl (stereo not given)	inactive: 8.38%

SMILES	inhibition
O=[N+]([O-])c1ncn(CCn2ncnc2[N+](=O)[O-])n1	inactive: -1.54%
Cc1cc(SC(NC(=O)c2ccc(F)cc2)C(Cl)(Cl)Cl)ncn1 (stereo not given)	inactive: 13.9%
CCOP(=O)(Nc1ccccc1)OCC	inactive: 15.1%
CN(C(=O)Cc1ccc(Cl)c(Cl)c1)[C@H]1CCCC[C@@H]1N1CCCC1	inactive: 11.3%
Cc1ccc(NP(=O)(Oc2ccccc2F)Oc2ccccc2F)nc1	inactive: 19.7%
CC(=O)Nc1ccc([As](=O)(O)O)cc1	inactive: 14.1%
O=C(O)c1ccccc1[As](=O)(O)O	inactive: -3.33%
O=P(Nc1nc2ccc(Cl)cc2s1)(c1ccccc1)c1ccccc1	inactive: 25.7%
CCN(N=Nc1nonc1N)c1nonc1N	inactive: 4.13%
O=[N+]([O-])c1cc([N+](=O)[O-])c(CCN2CCOCC2)c([N+](=O)[O-])c1	inactive: 47.9%
COc1ccccc1OP(=O)(Nc1ccc(C)cn1)Oc1ccccc1OC	inactive: 11.8%
Cc1ccc(OP(=O)(Nc2nccs2)Oc2ccc(C)cc2)cc1	inactive: 13.1%
CN1CCCC(OC(=O)C(c2ccccc2)c2ccccc2)C1 (stereo not given)	inactive: -21.5%
Clc1ccc(Cl)c(NC2=NCC(CBr)S2)c1 (stereo not given)	inactive: 24.7%
NC(=O)c1cc([N+](=O)[O-])cc([N+](=O)[O-])c1N	inactive: -14.4%
CN(C(=O)Cc1ccc(Cl)c(Cl)c1)[C@H]1CCCC[C@H]1N1CCCC1	inactive: -0.753%
Cc1ccc(N/C(=N/P(=O)(N2CCOCC2)N2CCOCC2)N2CCOCC2)cc1	inactive: -0.592%
Nc1cc(N)c2nonc2c1[N+](=O)[O-]	inactive: -2.48%
CC(C)CC(=O)NC(Sc1ccc(Cl)cc1)C(Cl)(Cl)Cl (stereo not given)	inactive: 16.9%
Oc1ccccc1CNc1ccccn1	inactive: 15.5%
O=C(NC(Sc1ccncn1)C(Cl)(Cl)Cl)c1ccccc1 (stereo not given)	inactive: 1.61%
Cc1c2non([O-])c-2c(C)[n+](=O)[n+]1[O-]	inactive: 8.73%
